pIC50, pKi: −log10 of the molar value.
Biological target: δ opiate receptor (Cavia porcellus, UniProt A0A286XTF2)
Assay: Opiate (δ) binding, [3H]DPDPE competitive radioligand binding
Set-up: species or system guinea pig

Sequences of proteins named here, by UniProt entry; tags and fusion partners are left off. A change or cut given only in a name is not applied to a line headed by its entry. Residues count along the entry.
UniProt A0A286XTF2, 1-366: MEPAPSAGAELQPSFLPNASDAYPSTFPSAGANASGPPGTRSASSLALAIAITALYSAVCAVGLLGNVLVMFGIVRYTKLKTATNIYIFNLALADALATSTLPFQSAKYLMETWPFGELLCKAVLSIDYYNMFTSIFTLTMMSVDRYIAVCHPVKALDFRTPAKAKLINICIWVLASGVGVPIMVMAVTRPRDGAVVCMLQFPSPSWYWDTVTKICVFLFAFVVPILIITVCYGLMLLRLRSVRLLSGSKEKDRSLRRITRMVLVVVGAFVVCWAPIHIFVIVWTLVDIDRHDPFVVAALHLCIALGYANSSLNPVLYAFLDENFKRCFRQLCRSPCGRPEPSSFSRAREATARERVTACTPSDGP

Molecule Oc1ccc2c3c1O[C@H]1c4[nH]c5ccccc5c4C[C@@]4(O)[C@@H](C2)N(CC2CC2)CC[C@]314 [Naltrindole] has a pIC50 of 9.20 and a pKi of 9.70.

From patent US7598253B2, “Reverse-turn mimetics and methods relating thereto” (Myriad Genetics, Inc., priority 1995, dated 2009)
